BindingDB's records for doi:10.1021/jm050578p (National Institutes of Health, 2006)
pIC50: −log10 of the molar value.

Sequences of proteins named here, by UniProt entry; tags and fusion partners are left off. A change or cut given only in a name is not applied to a line headed by its entry.
UniProt P22303: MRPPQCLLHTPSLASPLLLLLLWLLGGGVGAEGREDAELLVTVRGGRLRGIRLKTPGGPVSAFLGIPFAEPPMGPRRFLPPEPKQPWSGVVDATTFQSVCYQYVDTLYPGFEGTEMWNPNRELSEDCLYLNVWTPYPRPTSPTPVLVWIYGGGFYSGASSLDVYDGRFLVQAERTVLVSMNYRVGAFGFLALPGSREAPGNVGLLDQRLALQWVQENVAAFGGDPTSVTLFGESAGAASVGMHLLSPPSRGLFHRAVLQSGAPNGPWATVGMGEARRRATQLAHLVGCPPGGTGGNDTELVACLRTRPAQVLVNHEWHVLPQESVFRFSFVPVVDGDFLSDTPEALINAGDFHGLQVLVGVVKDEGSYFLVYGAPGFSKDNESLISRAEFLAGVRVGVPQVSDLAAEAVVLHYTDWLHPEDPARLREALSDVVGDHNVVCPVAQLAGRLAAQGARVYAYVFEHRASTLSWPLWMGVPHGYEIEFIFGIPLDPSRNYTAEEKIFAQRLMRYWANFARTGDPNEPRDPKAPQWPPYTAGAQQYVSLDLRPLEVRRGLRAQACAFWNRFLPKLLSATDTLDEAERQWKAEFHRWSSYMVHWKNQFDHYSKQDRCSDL
UniProt P06276, whole entry: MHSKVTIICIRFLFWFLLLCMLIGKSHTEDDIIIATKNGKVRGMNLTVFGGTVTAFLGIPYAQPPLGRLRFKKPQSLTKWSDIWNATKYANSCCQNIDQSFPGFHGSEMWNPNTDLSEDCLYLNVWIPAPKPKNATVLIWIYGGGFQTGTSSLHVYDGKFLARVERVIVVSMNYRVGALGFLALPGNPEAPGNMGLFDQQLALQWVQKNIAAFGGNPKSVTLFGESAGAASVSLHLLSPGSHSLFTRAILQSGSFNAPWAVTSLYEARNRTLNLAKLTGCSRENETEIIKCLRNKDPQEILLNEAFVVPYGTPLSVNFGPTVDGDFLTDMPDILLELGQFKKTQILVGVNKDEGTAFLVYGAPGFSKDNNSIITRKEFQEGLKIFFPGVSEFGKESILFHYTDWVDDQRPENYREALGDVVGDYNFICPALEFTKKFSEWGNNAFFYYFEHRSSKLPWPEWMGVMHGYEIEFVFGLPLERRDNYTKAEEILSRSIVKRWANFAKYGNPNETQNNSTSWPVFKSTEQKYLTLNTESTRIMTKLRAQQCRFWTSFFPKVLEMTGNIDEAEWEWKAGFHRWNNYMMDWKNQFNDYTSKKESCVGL

What was measured:
[1] = molecular target: Acetylcholinesterase (Homo sapiens, UniProt P22303); details: pH 8; 37 °C
[2] = molecular target: Cholinesterase (Homo sapiens, UniProt P06276)

Row | Compound | pIC50 [1] | pIC50 [2]
1 | Cc1ccccc1NC(=O)Oc1ccc2c(c1)[C@]1(C)CCOC1O2 (stereo partly drawn) [(2S)-2-methyl-5,7-dioxatricyclo[6.4.0.0^{2,6}]dodeca-1(12),8,10-trien-11-yl N-(2-methylphenyl)carbamate] | 7.70 | –
2 | CC(C)c1ccc(NC(=O)Oc2ccc3c(c2)[C@@]2(C)CCN(C)C2N3C)cc1 (stereo partly drawn) [(+)-(3aR)-1,3a,8-Trimethyl-1,2,3,3a,8,8a-hexahydropyrrolo-[2,3-b]indol-5-yl N-(4-Isopropylphenyl)carbamate] | – | 5.29
3 | Cc1ccccc1NC(=O)Oc1ccc2c(c1)[C@@]1(C)CCOC1O2 (stereo partly drawn) [(+)-(3aR)-3a-Methyl-2,3,3a,8a-Tetrahydrofuro[2,3-b]benzofuran-5-yl N-(o-Tolyl)carbamate] | 7.44 | –
